Laboratory results taken from paper PMC3845832 (Clinical cancer research : an official journal of the …, 2013).

Experiments:
CLL cells = details: ex vivo; data not shown
[1] = data not shown
[2] = test system: human whole blood or CLL cells; details: within human whole blood or in CLL cells ex vivo; data not shown

flavopiridol glucuronide [flavo-G]
Cytotoxicity to CLL cells (CLL cells): not cytotoxic
Flavo-G deposited into urine as share of total dose of flavopiridol [1]: less than 5%
Formation of metabolites [2]: nor were these metabolites formed at detectable levels
